# Earlier results, collected in article PMC11943303, “A Metabolically Stable Apelin-13 Analog Acting as a Potent ITo Potassium Current Blocker with Potential Benefits for Brugada Syndrome” (International Journal of Molecular Sciences, 2025).
# Tests used:
# [1] = system: angiotensin-converting enzyme 2 (ACE-2); details: ACE-2 cleaves apelin-13 between Pro^12 and Phe^13; cited from earlier work
# [2] = design: method as in PMID 10777510, PMID 18272843; details: isoforms identified in vivo; cited from earlier work
Substance,half-life in vivo [1],susceptibility to proteolysis [2]
apelin-13,less than 1 min,highly susceptible to proteolysis
apelin-17,–,highly susceptible to proteolysis
